# Measured values published in PubChem BioAssay AID540317 (National Center for Advancing Translational Sciences (NCATS), 2011).
# The chains behind the UniProt entries cited, without tags or fusion partners.
# UniProt P83916, whole entry: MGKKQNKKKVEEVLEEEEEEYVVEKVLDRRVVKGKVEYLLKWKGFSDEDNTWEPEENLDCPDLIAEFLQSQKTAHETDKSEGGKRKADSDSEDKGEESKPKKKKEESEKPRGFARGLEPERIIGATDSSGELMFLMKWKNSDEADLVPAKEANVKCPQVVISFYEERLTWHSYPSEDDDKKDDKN
# The entries are a selection whose mix differs from that of the whole data set. Records with an inconclusive call do not appear. The source made the active and inactive calls. Calls follow the shape of the dose curve; as a rule, active = well fitted inhibition curve with a large enough effect; inconclusive = small, poorly fitted or top-dose-only effect; inactive = no such curve, though single readings can be large or run the other way.
# Molecular target: Chromobox protein homolog 1 (Homo sapiens) (UniProt P83916)
# Assay: HTS for Inhibitors of HP1-beta Chromodomain Interactions with Methylated Histone Tails; also: nearly all actives have a fitted effect of over 70% in size
# Details: AlphaScreen HP1-beta / biotin-H3K9me3 peptide binding; at 114 µM (top of the series)
row,Compound,"activity change, negative = inhibition"
1,CP(=O)(Nc1ccc2c(c1)OCCO2)Oc1ccccc1 (centres undefined),inactive: 1.55%
2,COc1ccc(NP(C)(=O)Oc2ccccc2OC)cc1 (centres undefined),inactive: -8.35%
3,CN(C)CCOC(=O)C(O)(c1ccccc1)C1CCCCC1 (centres undefined),inactive: 26.2%
4,COc1ccc(OP(C)(=O)Nc2cccc(Br)c2)cc1 (centres undefined),inactive: 27.2%
5,Cc1c(C(c2ccc3c(c2)OCO3)c2c(C)n(C)n(-c3ccccc3)c2=O)c(=O)n(-c2ccccc2)n1C.O=[N+]([O-])c1cc([N+](=O)[O-])c(O)c([N+](=O)[O-])c1,inactive: 40%
6,Cc1cc(-c2cccc3ccccc23)c(C)cn1.O=[N+]([O-])c1cc([N+](=O)[O-])c(O)c([N+](=O)[O-])c1,inactive: 38.4%
7,O=[N+]([O-])c1ccc(OP2(=O)COCCO2)cc1 (centres undefined),inactive: 7.36%
8,COc1ccc(OP(C)(=O)Nc2ccc(SC(F)(F)F)cc2)cc1 (centres undefined),inactive: 54.5%
9,CCOC(=O)c1ccc(NP(C)(=O)Oc2ccc(F)cc2)cc1 (centres undefined),inactive: 31.8%
10,CCCCCOc1ccc(NP(C)(=O)Oc2ccc(Cl)cc2Cl)cc1 (centres undefined),inactive: 21.8%
11,CP(=O)(Nc1ccccc1)Oc1ccc(F)cc1 (centres undefined),inactive: 17.3%
12,CCN(CC)CCCOC(=O)C(O)(c1ccccc1)C1CCCCC1 (centres undefined),inactive: 34.6%
13,Cc1c([N+](=O)[O-])cc([N+](=O)[O-])c(Br)c1[N+](=O)[O-],inactive: 3.91%
14,CC(C)c1ccc(OP(C)(=O)Nc2ccc(SC(F)(F)F)cc2)cc1 (centres undefined),inactive: 39.9%
15,CP(=O)(Nc1ccccc1F)Oc1ccccc1 (centres undefined),inactive: 39.6%
16,O=C(OCCN1CCN(CCOCc2ccccc2)CC1)C(O)(c1ccccc1)c1ccccc1,inactive: 9.43%
17,Cc1cc(C)cc(OP(C)(=O)Nc2ccc(C)cc2C)c1 (centres undefined),inactive: 10.6%
18,CCOC(=O)c1ccc(NP(C)(=O)Oc2cc(C)cc(C)c2)cc1 (centres undefined),inactive: 9.75%
19,COc1ccccc1OP(C)(=O)Nc1cccc(Br)c1 (centres undefined),inactive: 44.3%
20,Cc1cc(C)cc(OP(C)(=O)Nc2ccccn2)c1 (centres undefined),inactive: 20.3%
21,CP(=O)(Nc1cccc(Br)c1)Oc1ccccc1 (centres undefined),inactive: 36.2%
22,Cc1ccc(C)c(NP(C)(=O)Oc2ccccc2)c1 (centres undefined),inactive: 21%
23,CC1=NCCc2c1[nH]c1ccccc21.O=[N+]([O-])c1cc([N+](=O)[O-])c(O)c([N+](=O)[O-])c1,inactive: -5.4%
24,CC1=C2N=C(C=C3N=C(C(C)=C4[N-][C@@](C)([C@@H]5N=C1[C@](C)(CCC(=O)NC[C@@H](C)OP(=O)([O-])O[C@H]1[C@@H](O)[C@@H](n6cnc7cc(C)c(C)cc76)O[C@@H]1CO)[C@H]5CC(N)=O)[C@@](C)(CC(N)=O)[C@@H]4CCC(N)=O)[C@@](C)(CC(N)=O)[C@@H]3CCC(N)=O)C(C)(C)[C@@H]2CCC(N)=O.[C-]#N.[Co+3],inactive: -0.907%
